Measurements as given in ChEMBL document CHEMBL4130448, “Novel SERMs based on 3-aryl-4-aryloxy-2H-chromen-2-one skeleton - A possible way to dual ERα/VEGFR-2 ligands for treatment of breast cancer” (Eur J Med Chem, 2017).

tested on: Ishikawa; assay: Cytotoxicity in human Ishikawa cells assessed as inhibition of cell growth incubated for 48 hrs by MTT assay; format: functional, cell-based

SMILES	growth inhibition (GI)
O=c1oc2cc(O)ccc2c(Oc2ccc(OCCN3CCCCC3)cc2)c1-c1ccc(O)cc1	Dose-dependent effect
O=c1oc2cc(O)ccc2c(Oc2ccc(OCCN3CCCCC3)cc2)c1-c1ccc(F)cc1	Dose-dependent effect
COc1ccc(-c2c(Oc3ccc(OCCN4CCCCC4)cc3)c3ccc(OC)cc3oc2=O)cc1	Dose-dependent effect
COc1ccc2c(Oc3ccc(OCCN4CCCCC4)cc3)c(-c3ccc(F)cc3)c(=O)oc2c1	Dose-dependent effect

tested on: MCF7; assay: Cytotoxicity in human MCF7 cells assessed as inhibition of cell growth incubated for 48 hrs by MTT assay; format: functional, cell-based

SMILES	growth inhibition (GI)
O=c1oc2cc(O)ccc2c(Nc2ccc(OCCN3CCCCC3)cc2)c1-c1ccc(O)cc1	Dose-dependent effect
O=c1oc2cc(O)ccc2c(Nc2ccc(OCCN3CCCCC3)cc2)c1-c1ccc(F)cc1	Dose-dependent effect
COc1ccc2c(Nc3ccc(OCCN4CCCCC4)cc3)c(-c3ccc(F)cc3)c(=O)oc2c1	Dose-dependent effect
O=c1oc2ccccc2c(Nc2ccc(OCCN3CCCCC3)cc2)c1-c1ccc(F)cc1	Dose-dependent effect
